Data reported in patent US20200338084A1, “INHIBITORS OF LOW MOLECULAR WEIGHT PROTEIN TYROSINE PHOSPHATASE (LMPTP) AND USES THEREOF” (Sanford Burnham Prebys Medical Discovery Institute, priority 2018, published 2020).
pIC50: −log10 of the molar value.

By UniProt entry, the sequences of proteins in these tests, tags left out.
UniProt P24666, whole entry: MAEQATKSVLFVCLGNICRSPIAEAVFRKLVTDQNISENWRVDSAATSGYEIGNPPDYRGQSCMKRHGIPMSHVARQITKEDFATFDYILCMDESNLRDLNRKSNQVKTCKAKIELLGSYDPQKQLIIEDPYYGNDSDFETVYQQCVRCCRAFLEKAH

Biological target: human LMPTP-A (Homo sapiens, UniProt P24666)
Assay: Enzyme Assay of Inhibition of LMPTP-A
Conditions: phosphatase assay, OMFP or pNPP substrate, 50 mM Bis-Tris pH 6.0, 37° C.

Clc1cccc(Cl)c1Cn1cnc(NCCCCC2CCNCC2)c2ncnc1-2
pIC50: 4.70 to 6.00
